From US20220000881A1, “TREATMENT OF EXPOSURE TO CHLORINE GAS WITH SCOPOLAMINE” (published 2022)

Test system: Sprague-Dawley rats exposed to chlorine

CN1[C@@H]2CC(OC(=O)C(CO)c3ccccc3)C[C@H]1[C@@H]1O[C@@H]12 (some centres unmarked) was tested, and the “survival to 6 hours following exposure to high dose Cl2” value (IM 0.15 mg/kg, 15 minutes after exposure, FIG. 1) was 100%, the “survival to 6 hours following exposure to high dose Cl2, compared to no treatment” value (IM 0.15 mg/kg, IT 0.2 mg/kg or IN 0.16 mg/kg, 15 minutes after exposure, FIG. 1) was “improved survival” and the “percent of subjects with tremors/seizures due to Cl2 exposure, comparison of routes” value (IM 0.15 mg/kg, FIG. 3) was “best results being obtained with IM dosing”. For the same molecule, the “percent of subjects with tremors/seizures due to Cl2 exposure” value (after scopolamine treatment (IM, IT or IN), FIG. 3) was “decreased” and the “survival, hypotonia, bradycardia, ataxia/seizure activity following exposure to chlorine” value (general statement, following exposure to Cl2) was “effective at improving survival, hypotonia, bradycardia, and in minimizing ataxia/seizure activity”.
